Test results reported in patent US9801851B2, “Methods and compositions for the treatment of BCR-ABL positive lymphoblastic leukemias” (ST. JUDE CHILDREN'S RESEARCH HOSPITAL, priority 2012, dated 2017).
Where “and” joins values, the source holds several entries; their conditions need not be identical. Equal entries are not always repeated.

Key:
BCR-ABL^WT LICs = experiment: Drug/cytokine washout, cytokine recovery and dasatinib re-challenge studies; assay type: cell-based, murine; settings: incremental doses; 0 to 72 h
BCR-ABL^T315I LICs = experiment: In vivo adoptive leukemia transfer Ph+ model, overall survival; settings: IL7+/+ host mice; 300 mg/kg DHA or 10 mg/kg dasatinib
Arf−/− BCR-ABL^WT LICs = settings: mouse, in vivo

Cc1nc(Nc2ncc(C(=O)Nc3c(C)cccc3Cl)s2)cc(N2CCN(CCO)CC2)n1 [dasatinib]
cell cycle changes at end of exposure period (FACS) (BCR-ABL^WT LICs): induce cell cycle arrest and apoptosis | response of low-burden BCR-ABL^T315I leukemia to monotherapy (BCR-ABL^T315I LICs): completely refractory | median survival (Arf−/− BCR-ABL^WT LICs): 33 days and 41 days | time to complete mortality after initiating therapy (Arf−/− BCR-ABL^WT LICs; 10 mg/kg): ≤ 6 weeks
